pIC50: −log10 of the molar value.
What was measured:
Test in all cases: competition binding assay, purified HLA class I
[1] = target: HLA-B*4501 (human)
[2] = target: HLA-B*1801 (human)
[3] = target: HLA-B*4001 (human)

| Substance | pIC50 [1] | pIC50 [2] | pIC50 [3] |
| --- | --- | --- | --- |
| WEELSML (MAGE2 position 234, 7-mer) (peptide) | 4.82 | 4.75 |  |
| WEELSML (MAGE2 position 252, 7-mer) (peptide) |  | 5.08 | 5.18 |

Source: patent publication EP1903056A2
